This data set has as its system SD rats.
Where [1] appears, read: very small dose (0.1 mg/kg) for a month.

Consider one substance from patent US11092610B2, “Biomarker SBP1 for early diagnosis of kidney diseases, and use thereof” (CELLGENTEK CO., LTD., priority 2016, dated 2021).

As to HgCl2 [mercury], for the setting “chronic oral administration, low dose (0.1 mg/kg), one month”, the “renal failure, pathological findings of kidney tissue (H&E staining)” value was “renal failure was induced”. Besides, for the setting “low dose orally administered”, the “SBP1 expression in renal tissue” value was “increased”. For the same substance, under setting [1], the BUN level result is “not increased”, the SBP1 in urine entry is “detected”, the creatinine level entry is listed as “not increased” and the histological damage entry was “not increased”.
